In the test the target is 5-hydroxytryptamine receptor 4 (Rattus norvegicus, UniProt Q62758). In words: In vitro affinity at serotonergic 5-hydroxytryptamine 4 receptor by radioligand binding assay using [3H]GR-113808 in rat striatum membranes.

The chains behind the UniProt entries cited, without tags or fusion partners. Where a name states a change or a piece, a line headed by the entry shows the natural chain unless it says otherwise.
UniProt Q62758: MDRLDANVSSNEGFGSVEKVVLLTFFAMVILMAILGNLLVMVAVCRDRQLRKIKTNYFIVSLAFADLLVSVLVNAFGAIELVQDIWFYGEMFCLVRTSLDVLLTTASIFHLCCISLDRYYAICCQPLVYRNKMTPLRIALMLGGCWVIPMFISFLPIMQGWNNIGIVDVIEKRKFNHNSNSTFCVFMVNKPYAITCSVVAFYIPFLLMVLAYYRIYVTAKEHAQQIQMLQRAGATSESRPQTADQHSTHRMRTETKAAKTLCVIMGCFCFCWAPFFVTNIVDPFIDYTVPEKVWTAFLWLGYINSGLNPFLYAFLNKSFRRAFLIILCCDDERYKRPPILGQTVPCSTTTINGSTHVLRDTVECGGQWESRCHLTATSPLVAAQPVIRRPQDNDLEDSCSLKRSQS

As a reminder, the Ki is the equilibrium dissociation constant of an inhibitor or competing ligand from its target. For `O=C(OC1CN2CCC1CC2)c1cccc2nc[nH]c12` (stereo unspecified), the Ki is above 10 µM.

The values above are taken from BindingDB's records for 10585211.
